{"source": "patent US8314126B2", "about": "“Disubstituted phenylpiperdines/piperazines as modulators of dopamine neurotransmission” (NSAB, Filial af Neurosearch Sweden AB, Sverige, priority 2004, dated 2012)", "test_system": "Rats pre-treated with d-amphetamine", "test": "animal or person", "details": "Rattus norvegicus, read-out: ED50 reduction of amphetamine-induced hyper-locomotion"}
{"compound": "OCCCN1CCC(c2cccc(C(F)(F)F)c2F)CC1", "values": [{"measurement": "ED50", "value": 12.4, "unit": "µmol/kg"}]}
{"compound": "CCN1CCC(c2cccc(S(C)(=O)=O)c2F)CC1", "note": "[drawing 42]", "values": [{"measurement": "ED50", "value": 28, "unit": "µmol/kg"}]}
